Screening data (PubChem BioAssay)
RXFP1 agonist = RXFP1 (human) receptor agonism; Q9HBX9; HEK293T-RXFP1 cAMP TR-FRET, 30 min; response scale: percent of porcine relaxin response, buffer zero; Potency, µM (titrated, usually from 57.5 µM), for the others: at the top dose activation, usual class: activators; hit rate 0.3% among 370,000; AID 2676; note: potency is the fitted concentration of half-maximal effect; % is set by controls: 0 for no effect and ±100 for the full control effect; nearly all actives have a fitted effect of over 60% in size
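HEK293 cells stably expressing RXFP1, treated 30 min at 37C with compounds plus PDE4 inhibitor Ro 20174; cAMP measured by HTRF TR-FRET. Normalized to buffer and 29 nM porcine relaxin; EC50 by Hill fit.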
miR-21 reporter = raises the signal of a miR-21 reporter; HeLa miR-21 FLuc reporter, luciferase, 48 h; Potency, µM (series often up to 38.3 µM), inactives show top-dose reporter change, positive = more light; 340,000 tested, under 10 active; active = well fitted rising curve with a large enough effect; inconclusive = small, poorly fitted or top-dose-only effect; inactive = no such curve, though single readings can be large or run the other way;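 also: % of control where 0% means no effect; miR-21 action dims this reporter so a rising signal means less miR-21 action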
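Compounds were titrated across several concentrations (up to approximately 40 uM) and incubated 48 hours with HeLa miR-21-FLuc reporter cells (miR-21 target sequence downstream of FLuc, endogenous miR-21). Readout was firefly luciferase luminescence after lytic detection reagent.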
RXFP1 antagonist = RXFP1 (human) relaxin receptor antagonism; Q9HBX9; HEK293-RXFP1, relaxin-stimulated cAMP HTRF, 30 min; stronger effect = lower value; activity change, negative = inhibition, % at 57.5 µM; hit rate 0.59% among 350,000; AID 1259400;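 active = activity change of -60% or lower, but not beyond a set lower limit; inconclusive = change between -60% and -40%, or beyond the set limit; inactive = change above -40%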; note: % is set by controls: 0 for no effect and ±100 for the full control effect
PKM2 act = PKM2 (human) enzyme activation | P14618 | purified PKM2, Kinase-Glo ATP luminescence, activation; response scale: 0% is enzyme alone, no compound | Potency, µM (titrated, usually from 57.5 µM), for the others: top-dose activation, usual class: activators | hit rate 0.34% among 260,000 | AID 1631; note: potency is the fitted concentration of half-maximal effect; % is set by controls: 0 for no effect and ±100 for the full control effect; nearly all actives have a fitted effect of over 55% in size
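ATP formation by purified human PK-M2, quantified via coupled luciferase luminescence after 1 h at room temperature with 0.1 mM ADP and 0.5 mM PEP final.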
GALK inhibitor = blocks human galactokinase activity. P51570. Purified GALK, Kinase-Glo residual ATP luminescence. Potency, µM (titrated, usually from 57.5 µM), inactives show at the top dose activity change, negative = inhibition, actives largely listed as inhibitors. hit rate 0.007% among 270,000; note: potency is the fitted concentration of half-maximal effect; % is set by controls: 0 for no effect and ±100 for the full control effect
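5 nM enzyme, 35 uM ATP, 100 uM galactose, 20 mM HEPES pH8.0, 5 mM MgCl2; 1 h RT; residual ATP by Kinase-Glo Plus luminescence, qHTS format.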
KinaseGlo FLuc = Kinase-Glo luciferase inhibition (counter-screen) | Potency, µM (highest dose often 38.3 µM), inactives show at the top dose activity change, negative = inhibition, hits mostly inhibitors | Q27757 | Kinase-Glo luciferase, ATP luminescence, 8 min | AID 1379 | hit rate 0.28% among 200,000; note: potency is the fitted concentration of half-maximal effect; % is set by controls: 0 for no effect and ±100 for the full control effect; nearly all actives have a fitted effect of over 60% in size
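Inhibition of Kinase-Glo luciferase light generation was assessed at 10 uM ATP in pH 7.2 imidazole buffer, with luminescence measured after eight minutes at ambient temperature.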
* hit, by the source's call; ? = inconclusive; · = not tested or not shown; [ ] = remark or other dose. An excerpt weighted towards active compounds, which were near 0.92% of everything screened. Unless noted, calls come from the whole dose curve; as a rule, active = well fitted curve in the direction sought with a large enough effect; inconclusive = small, poorly fitted or top-dose-only effect, or another doubt; inactive = no such curve, though single readings can be large; an effect the other way counts as inactive or inconclusive.

#1 Cc1ccc(N=Cc2cc3c(cc2O)OC(N)=C(C#N)C3c2ccccc2)cc1 (stereo not drawn)
#2 N#CC1=C(N)Oc2cc(O)c(C=Nc3ccccc3)cc2C1c1ccccc1 (stereo not drawn)
#3 O=c1oc2cc(O)c(Cl)cc2c2ccccc12
#4 CCn1c(SCC(=O)Nc2cccc(C)c2)nc2nc3c(cc2c1=O)COC(C)(C)C3
#5 CCCCNC(=O)Nc1ccnn1C1CCCCC1
#6 COc1ccccc1NC(=O)Nc1ccnn1C1CCCCC1
Assay by compound	1	2	3	4	5	6
GALK inhibitor	-1%	-2%	0%	0%	0%	4%
RXFP1 agonist	0%	3%	11µM*	1%	-1%	0%
miR-21 reporter	?	?	-17%	6%	4%	0%
KinaseGlo FLuc	1%	3%	1%	·	-1%	-3%
RXFP1 antagonist	-69*	3	43	-14	7	-3
PKM2 act	16%	21%	-3%	14µM*	4µM*	7%

#7 O[C@@H](c1cc(-c2ccc(Cl)cc2)nc2ccccc12)C1CCCCN1 (stereo partly drawn)
#8 C=C(C)C(=O)C1CCCCC1
#9 COc1ccccc1N1CCN(C(=O)CCCCCn2c(=S)[nH]c3cc4c(cc3c2=O)OCO4)CC1
#10 CCOC(=O)N1CCN(C(=O)c2ccc(Cn3c(=S)[nH]c4cc(OCC)c(OCC)cc4c3=O)cc2)CC1
#11 O=C(CCCn1c(=S)[nH]c2cc3c(cc2c1=O)OCO3)N1CCN(c2ccccc2F)CC1
#12 COc1ccccc1N1CCN(C(=O)CCn2c(=O)[nH]c3ccccc3c2=O)CC1
Assay by compound	7	8	9	10	11	12
GALK inhibitor	·	·	·	-3%	1%	0%
RXFP1 agonist	·	·	·	5%	2%	1%
miR-21 reporter	·	·	·	0%	-9%	2%
KinaseGlo FLuc	-2%[7.66 µM]	0%	·	·	0%	-1%
RXFP1 antagonist	·	·	-78*	-32	?	-8
PKM2 act	·	·	·	-1%	5%	-11%

#13 Cc1ccc(C)c(N2CCN(C(=O)CCCn3c(=S)[nH]c4cc5c(cc4c3=O)OCO5)CC2)c1
#14 COc1ccccc1N1CCN(C(=O)CCCn2c(=S)[nH]c3ccccc3c2=O)CC1
#15 CCOC(=O)N1CCN(C(=O)c2ccc(Cn3c(=S)[nH]c4cc5c(cc4c3=O)OCO5)cc2)CC1
#16 COc1ccc(-c2cc(OC(=O)c3cccc(Cl)c3)c3c(C)oc(C)c3c(=O)c2)cc1
#17 CCN1C2=NCCCN2c2cc(C)c(C)cc21
#18 CC1(OC(=O)c2ccco2)C(=O)C2=COC(C3CC3)=CC2=C(Br)C1=O (stereo not drawn)
Assay by compound	13	14	15	16	17	18
GALK inhibitor	-2%	·	-3%	·	0%	·
RXFP1 agonist	0%	·	-1%	1%	-1%	·
miR-21 reporter	-3%	·	0%	11%	0%	·
KinaseGlo FLuc	-4%	·	-1%	·	-3%	1%
RXFP1 antagonist	-102*	-65*	-92*	-34	-4	·
PKM2 act	-3%	·	-7%	·	-7%	·

Down the list, quoted from above.
Compounds 13–18 in KinaseGlo FLuc, in turn: -4%, ·, -1%, ·, -3%, 1%

Further records.
#19 CCCCC(=O)C1=C(N2CCCC2)CC(C)(C)CC1=O
#20 COc1ccccc1C1CCCN1Cc1nc(-c2ccc(C)s2)oc1C (stereo not drawn)
#21 COc1ccc(C(=O)NCCN2C(=O)S/C(=C\c3cccnc3)C2=O)c(OC)c1OC
#22 CCOc1cc(C(=O)NCCN2C(=O)S/C(=C\c3cccnc3)C2=O)cc(OCC)c1OCC
#23 CC1(CC(=O)N/N=C/c2cc([N+](=O)[O-])c(O)cc2O)OCCO1
#24 CC(C)C(=O)Nc1ccc(NC(=O)c2cccc3c(Br)cccc23)cc1
Assay by compound	19	20	21	22	23	24
GALK inhibitor	·	-3%	1%	1%	-4%	0%
RXFP1 agonist	·	0%	2%	1%	-2%	7%
miR-21 reporter	·	22%	-5%	10%	1%	1%
KinaseGlo FLuc	·	-1%	-4%	0%	-4%	·
RXFP1 antagonist	-62*	-65*	·	-3	2	-10
PKM2 act	·	-9%	?	18µM*	-4%	·

#25 COc1ccc(-c2nnc(SCC(=O)Nc3ccc(C(C)=O)cc3)nc2-c2ccc(OC)cc2)cc1
#26 CC(=O)c1ccc(NC(=O)CSc2nnc(-c3ccco3)c(-c3ccco3)n2)cc1
#27 O=C(CSc1nnc(-c2ccco2)c(-c2ccco2)n1)c1ccccc1
#28 CN(C)c1ccc(/C=N/N2C(=O)c3ccccc3C2=O)cc1
#29 COc1ccc(/C=N/N2C(=O)c3ccccc3C2=O)cc1
#30 O=C(O)c1ccc(COc2ccccc2C=C2C(=O)c3ccccc3C2=O)cc1
Assay by compound	25	26	27	28	29	30
GALK inhibitor	·	4%	-2%	5%	4%	-5%
RXFP1 agonist	1%	-3%	27%	3%	1%	-1%
miR-21 reporter	-49%	0%	-4%	-50%	-1%	-20%
KinaseGlo FLuc	·	-7%	2%	·	14µM*	-2%
RXFP1 antagonist	-2	-71*	-97*	-3	-10	-60*
PKM2 act	·	?	-1%	0%	-13%	-1%

#31 O=C1NC(=S)N/C1=C\c1ccccc1OCc1ccc(C(=O)O)cc1
#32 Cc1onc(-c2c(F)cccc2Cl)c1C(=O)N=C(N)N1CCCC1
#33 Cc1ccc(CNC(=O)CCCCCn2c(=O)c3sccc3n(CC(=O)Nc3ccc(C)c(F)c3)c2=O)cc1
#34 CCCOc1ccc(CNC(=O)C2CCN(C(=O)N3CCOc4ccccc43)CC2)cc1
#35 CCOC(=O)c1c(NC(=O)CSc2nc(C)cc(C)c2C#N)sc(C(C)=O)c1C
#36 O=C(Nc1ccccc1)Nc1cc(OCC(F)(F)F)cc(OCC(F)(F)F)c1
Assay by compound	31	32	33	34	35	36
GALK inhibitor	3%	-2%	·	·	6%	0%
RXFP1 agonist	0%	0%	32µM*	4%	18µM*	0%
miR-21 reporter	-8%	0%	-9%	20%	1%	?
KinaseGlo FLuc	·	·	·	·	0%	0%
RXFP1 antagonist	-2	-12	-4	6	-9	-72*
PKM2 act	0%	-9%	·	-8%	-4%	-5%

#37 O=C(Nc1ccccc1)Nc1cc(Cl)cc(Cl)c1
#38 CCOC(=O)Cn1c(=O)oc2cc(S(=O)(=O)N3CCN(c4ccccc4OC)CC3)ccc21
#39 CCOC(=O)Cn1c(=O)oc2cc(S(=O)(=O)N3CCN(c4ccccn4)CC3)ccc21
#40 CCN(CC)CCNC(=O)c1ccc(Cc2nc3ccccc3[nH]2)cc1
#41 C=C(C)COc1ccc(-c2[nH]ncc2-c2ccc(OC)c(OC)c2)c(O)c1
#42 COc1ccc(-c2cn[nH]c2-c2ccc(OCc3ccccc3)cc2O)cc1OC
Assay by compound	37	38	39	40	41	42
GALK inhibitor	0%	·	0%	·	-1%	1%
RXFP1 agonist	-1%	2%	-1%	·	2%	3%
miR-21 reporter	?	-2%	0%	·	22%	?
KinaseGlo FLuc	2%	·	0%	0%	1%	·
RXFP1 antagonist	-21	-65*	·	·	-78*	-26
PKM2 act	-2%	·	2%	·	12%	10%

Three compounds out of the list, ordered by heavy-atom count, largest number first.
#22 CCOc1cc(C(=O)NCCN2C(=O)S/C(=C\c3cccnc3)C2=O)cc(OCC)c1OCC
#2 N#CC1=C(N)Oc2cc(O)c(C=Nc3ccccc3)cc2C1c1ccccc1 (stereo not drawn)
#24 CC(C)C(=O)Nc1ccc(NC(=O)c2cccc3c(Br)cccc23)cc1
Assay by compound	22	2	24
GALK inhibitor	1%	-2%	0%
RXFP1 agonist	1%	3%	7%
miR-21 reporter	10%	?	1%
KinaseGlo FLuc	0%	3%	·
RXFP1 antagonist	-3	3	-10
PKM2 act	18µM*	21%	·

Going on with the list:
#43 C=C(C)COc1ccc(-c2[nH]ncc2-c2ccc(OC)cc2)c(O)c1
#44 COc1ccc(-c2cn[nH]c2-c2ccc(OCc3ccc(F)cc3)cc2O)cc1OC
#45 CCN(CC(=O)NCc1cccs1)C(=O)c1cccc(S(=O)(=O)N2CC(C)OC(C)C2)c1 (stereo not drawn)
#46 O=C(O)c1c(C(=O)O)c2ccccc2[nH]c1=O
Assay by compound	43	44	45	46
GALK inhibitor	0%	-1%	·	·
RXFP1 agonist	3%	2%	·	·
miR-21 reporter	26%	?	·	·
KinaseGlo FLuc	·	·	·	-1%
RXFP1 antagonist	-64*	-73*	-1	·
PKM2 act	-7%	0%	·	·
